Results reported in US20050175695A1, “Carvedilol free base, salts, anhydrous forms or solvates thereof, corresponding pharmaceutical compositions, controlled release formulations, and treatment or delivery methods” (priority 2003, published 2005).
Structures can show the parent of a compound that is named as a salt.

Columns and labels:
[1] = Solubility in water of carvedilol free base and monocitrate salt over time (Table 11); format: physicochemical; settings: 25° C., 1 hr
[2] = Aqueous solubility at 25° C. of carvedilol free base and three salts (Table 13); format: physicochemical

Row | Structure (SMILES) | Aqueous Solubility [1] | Aqueous Solubility ([2]; 24 hr) | Aqueous Solubility ([2]; 1 hr) | Aqueous Solubility ([2]; 4 hr) | Aqueous Solubility ([2]; 24 hr, HBr)
1 | COc1ccccc1OCCNCC(O)COc1cccc2[nH]c3ccccc3c12 (centres unmarked) [Carvedilol Free Base] | 0.0098 mg of carvedilol free base/mL of solution | 0.024 mg of Carvedilol free base/mL of solution | – | – | –
2 | COc1ccccc1OCCNCC(O)COc1cccc2[nH]c3ccccc3c12 (centres unmarked) [HBr salt, Carvedilol HBr] | – | – | 0.62 mg of Carvedilol free base/mL of solution | 0.61 mg of Carvedilol free base/mL of solution | 0.61 mg of Carvedilol free base/mL of solution
